Test system: NCI-N87 cells (HER2 overexpressing human gastric cancer cells)
Assay: Tumor inhibition rate test of NCI-N87 transplanted tumor in nude mice
Type: in vivo
Settings: 7.5 mg/kg (first dose doubling), IV, D0, 7
Source text: To evaluate and compare the effect of antibody-cytotoxin conjugates according to the present invention on transplanted tumors of NCI-N87 cells (HER2 overexpressing human gastric cancer cells, ATCC, CRL-5822) in nude mice. […] Preparation method: all prepared with physiological saline. […] Feeding environment: SPF level. […] T/C (%)=(T−T0)/(C−C0)×100%, wherein T and C represent the tumor volume at the end of the experiment; T0 and C0 represent the tumor volume at the beginning of the experiment. […] The number of mice at the beginning of the experiment was as follows: Control group n=12, Treatment group n=6.

Trastuzumab
% tumor inhibition rate D21: 60%
Mean tumor volume (mm^3) D21: 366.5 mm^3

From patent publication US20180177890A1, “LIGAND-CYTOTOXIC DRUG CONJUGATE, PREPARATION METHOD THEREOF, AND USE THEREOF” (priority 2015, published 2018)
